Test results: patent publication US20240254119A1 (THIRD HARMONIC BIO, INC., priority 2022, published 2024)

Amino acid sequences for entries named in this document (tags omitted). Residues count along the entry.
UniProt P10721, 26-976 limits assumed: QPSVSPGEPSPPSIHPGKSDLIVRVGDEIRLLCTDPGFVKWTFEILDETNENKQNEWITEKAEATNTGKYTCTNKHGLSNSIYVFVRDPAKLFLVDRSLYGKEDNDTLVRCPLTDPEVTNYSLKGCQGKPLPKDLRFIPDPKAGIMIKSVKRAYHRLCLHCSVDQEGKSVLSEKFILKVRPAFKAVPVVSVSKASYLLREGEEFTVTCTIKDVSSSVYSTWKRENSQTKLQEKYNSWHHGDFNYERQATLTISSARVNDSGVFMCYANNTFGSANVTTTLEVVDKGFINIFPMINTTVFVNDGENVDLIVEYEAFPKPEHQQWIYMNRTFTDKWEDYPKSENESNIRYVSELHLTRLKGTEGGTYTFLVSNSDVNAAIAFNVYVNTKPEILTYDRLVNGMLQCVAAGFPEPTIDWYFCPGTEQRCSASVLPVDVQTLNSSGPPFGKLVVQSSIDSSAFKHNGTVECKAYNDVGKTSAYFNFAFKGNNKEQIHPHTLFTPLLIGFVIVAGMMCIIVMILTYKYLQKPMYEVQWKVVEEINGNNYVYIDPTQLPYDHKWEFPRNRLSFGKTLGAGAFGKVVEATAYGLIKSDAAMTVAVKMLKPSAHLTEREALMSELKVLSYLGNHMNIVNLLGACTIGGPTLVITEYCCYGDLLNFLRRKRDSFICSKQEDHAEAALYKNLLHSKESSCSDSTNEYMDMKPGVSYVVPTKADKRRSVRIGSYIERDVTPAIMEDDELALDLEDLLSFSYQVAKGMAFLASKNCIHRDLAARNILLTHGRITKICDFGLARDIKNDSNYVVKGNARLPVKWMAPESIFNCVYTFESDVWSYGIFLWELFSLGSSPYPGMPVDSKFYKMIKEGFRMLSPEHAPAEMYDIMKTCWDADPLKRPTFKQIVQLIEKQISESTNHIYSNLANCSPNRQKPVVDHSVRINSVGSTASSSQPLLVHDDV
UniProt P07333, 20-972 limits assumed: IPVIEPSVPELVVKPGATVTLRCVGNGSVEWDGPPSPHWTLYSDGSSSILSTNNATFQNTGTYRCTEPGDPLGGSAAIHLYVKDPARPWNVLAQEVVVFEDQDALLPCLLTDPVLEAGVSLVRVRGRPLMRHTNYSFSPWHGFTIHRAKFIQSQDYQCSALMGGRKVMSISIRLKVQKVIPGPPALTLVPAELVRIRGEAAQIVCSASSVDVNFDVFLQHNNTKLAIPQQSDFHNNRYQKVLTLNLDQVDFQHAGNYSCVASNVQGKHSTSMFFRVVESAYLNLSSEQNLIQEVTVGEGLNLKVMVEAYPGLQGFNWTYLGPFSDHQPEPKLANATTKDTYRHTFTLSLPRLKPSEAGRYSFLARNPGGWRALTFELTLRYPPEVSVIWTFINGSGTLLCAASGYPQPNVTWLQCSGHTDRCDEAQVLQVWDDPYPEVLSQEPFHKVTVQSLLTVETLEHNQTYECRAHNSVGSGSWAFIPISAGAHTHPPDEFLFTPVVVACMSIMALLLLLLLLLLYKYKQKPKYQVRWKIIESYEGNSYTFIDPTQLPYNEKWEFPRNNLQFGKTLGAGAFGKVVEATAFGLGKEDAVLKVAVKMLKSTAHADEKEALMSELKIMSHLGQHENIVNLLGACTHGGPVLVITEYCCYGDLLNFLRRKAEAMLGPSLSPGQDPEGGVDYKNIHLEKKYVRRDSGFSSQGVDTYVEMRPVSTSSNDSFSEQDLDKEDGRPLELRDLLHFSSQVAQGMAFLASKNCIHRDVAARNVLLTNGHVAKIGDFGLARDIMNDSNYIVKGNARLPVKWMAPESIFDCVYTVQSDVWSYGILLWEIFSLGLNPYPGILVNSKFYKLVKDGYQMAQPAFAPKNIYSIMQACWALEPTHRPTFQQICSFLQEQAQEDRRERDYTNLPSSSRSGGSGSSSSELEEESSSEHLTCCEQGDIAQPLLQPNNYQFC
UniProt P16234, 24-1089 limits assumed: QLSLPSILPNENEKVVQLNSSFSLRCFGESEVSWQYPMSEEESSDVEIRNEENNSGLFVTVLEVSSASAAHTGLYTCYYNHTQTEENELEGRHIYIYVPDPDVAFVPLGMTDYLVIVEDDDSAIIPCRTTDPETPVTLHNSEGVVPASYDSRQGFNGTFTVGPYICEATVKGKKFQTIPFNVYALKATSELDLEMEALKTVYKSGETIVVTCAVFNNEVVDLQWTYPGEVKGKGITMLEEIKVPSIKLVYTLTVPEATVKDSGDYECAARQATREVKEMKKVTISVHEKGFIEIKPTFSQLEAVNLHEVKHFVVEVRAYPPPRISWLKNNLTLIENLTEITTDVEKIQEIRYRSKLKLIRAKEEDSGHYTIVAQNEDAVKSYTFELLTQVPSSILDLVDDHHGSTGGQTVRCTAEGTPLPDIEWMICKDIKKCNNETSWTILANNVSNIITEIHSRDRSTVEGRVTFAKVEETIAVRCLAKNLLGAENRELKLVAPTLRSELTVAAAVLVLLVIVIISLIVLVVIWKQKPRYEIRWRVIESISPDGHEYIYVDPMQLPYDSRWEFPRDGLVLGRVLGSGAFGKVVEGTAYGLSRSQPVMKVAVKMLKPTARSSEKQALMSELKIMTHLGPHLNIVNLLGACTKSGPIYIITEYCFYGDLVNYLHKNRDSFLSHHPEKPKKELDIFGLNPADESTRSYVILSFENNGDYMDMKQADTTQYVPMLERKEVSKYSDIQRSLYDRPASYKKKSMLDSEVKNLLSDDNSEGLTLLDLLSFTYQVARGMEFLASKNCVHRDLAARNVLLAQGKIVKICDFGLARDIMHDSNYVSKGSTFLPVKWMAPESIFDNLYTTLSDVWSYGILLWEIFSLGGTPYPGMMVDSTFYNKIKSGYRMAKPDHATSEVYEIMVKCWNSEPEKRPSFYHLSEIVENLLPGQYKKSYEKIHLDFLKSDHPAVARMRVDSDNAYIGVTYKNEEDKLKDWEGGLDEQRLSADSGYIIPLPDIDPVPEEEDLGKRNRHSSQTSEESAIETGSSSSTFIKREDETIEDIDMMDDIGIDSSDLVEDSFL
UniProt P08183, whole entry: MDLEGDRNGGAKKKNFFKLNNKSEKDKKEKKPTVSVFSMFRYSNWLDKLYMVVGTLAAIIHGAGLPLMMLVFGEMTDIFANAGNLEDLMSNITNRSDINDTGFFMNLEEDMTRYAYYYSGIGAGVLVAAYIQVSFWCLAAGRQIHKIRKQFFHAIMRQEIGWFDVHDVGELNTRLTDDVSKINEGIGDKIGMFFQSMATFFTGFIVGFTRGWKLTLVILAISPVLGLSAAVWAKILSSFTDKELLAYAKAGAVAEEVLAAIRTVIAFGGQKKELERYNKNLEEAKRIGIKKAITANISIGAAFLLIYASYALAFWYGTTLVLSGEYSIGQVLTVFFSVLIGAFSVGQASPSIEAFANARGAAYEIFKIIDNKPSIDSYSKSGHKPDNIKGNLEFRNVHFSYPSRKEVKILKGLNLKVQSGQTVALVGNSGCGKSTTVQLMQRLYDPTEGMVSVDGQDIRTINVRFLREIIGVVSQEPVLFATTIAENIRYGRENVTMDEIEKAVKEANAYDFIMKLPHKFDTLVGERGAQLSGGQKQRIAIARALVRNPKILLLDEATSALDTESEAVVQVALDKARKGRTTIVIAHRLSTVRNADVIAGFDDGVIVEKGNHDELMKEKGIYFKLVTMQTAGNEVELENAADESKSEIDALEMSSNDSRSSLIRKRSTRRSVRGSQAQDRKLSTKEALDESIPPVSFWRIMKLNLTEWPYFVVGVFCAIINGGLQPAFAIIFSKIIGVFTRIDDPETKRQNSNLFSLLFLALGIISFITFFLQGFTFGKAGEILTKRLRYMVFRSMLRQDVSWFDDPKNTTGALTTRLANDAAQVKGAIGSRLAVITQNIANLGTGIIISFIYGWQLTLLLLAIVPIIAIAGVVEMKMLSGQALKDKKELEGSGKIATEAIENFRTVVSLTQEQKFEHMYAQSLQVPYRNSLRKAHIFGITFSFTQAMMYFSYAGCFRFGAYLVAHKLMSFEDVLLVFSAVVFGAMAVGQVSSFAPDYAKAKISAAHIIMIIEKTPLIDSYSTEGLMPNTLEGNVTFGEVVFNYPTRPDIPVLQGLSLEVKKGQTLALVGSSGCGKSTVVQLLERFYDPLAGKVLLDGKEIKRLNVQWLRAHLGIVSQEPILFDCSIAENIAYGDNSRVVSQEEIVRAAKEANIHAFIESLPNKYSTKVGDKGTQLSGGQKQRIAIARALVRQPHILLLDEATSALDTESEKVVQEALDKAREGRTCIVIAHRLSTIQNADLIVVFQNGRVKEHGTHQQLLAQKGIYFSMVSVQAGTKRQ
UniProt Q9UNQ0, whole entry: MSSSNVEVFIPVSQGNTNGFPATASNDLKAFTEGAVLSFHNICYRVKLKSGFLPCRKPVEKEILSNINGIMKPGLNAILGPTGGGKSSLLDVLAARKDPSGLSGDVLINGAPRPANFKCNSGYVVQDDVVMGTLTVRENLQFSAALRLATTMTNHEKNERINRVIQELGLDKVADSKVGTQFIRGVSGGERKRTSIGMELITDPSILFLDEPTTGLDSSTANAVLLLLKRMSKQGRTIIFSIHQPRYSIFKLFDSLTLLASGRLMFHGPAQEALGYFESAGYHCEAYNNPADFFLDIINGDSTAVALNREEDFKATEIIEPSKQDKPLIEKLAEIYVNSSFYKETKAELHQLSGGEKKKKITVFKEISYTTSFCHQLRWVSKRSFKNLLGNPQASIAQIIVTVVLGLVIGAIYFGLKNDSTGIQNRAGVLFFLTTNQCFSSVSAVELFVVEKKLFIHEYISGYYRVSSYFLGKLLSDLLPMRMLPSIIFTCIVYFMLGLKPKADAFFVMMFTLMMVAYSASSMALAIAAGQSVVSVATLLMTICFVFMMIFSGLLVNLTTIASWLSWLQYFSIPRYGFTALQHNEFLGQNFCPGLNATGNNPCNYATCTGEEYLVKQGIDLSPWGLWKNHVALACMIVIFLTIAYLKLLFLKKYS

How the values were obtained:
[1] = biological target: T1, wtKIT (Homo sapiens, UniProt P10721); assay: Caliper biochemical assay, wtKIT; conditions: read-out: KIT Biochemical IC50 avg, Table 6
[2] = biological target: T2, CSF-1R (Homo sapiens, UniProt P07333); assay: Caliper biochemical assay, CSF-1R; conditions: read-out: CSF-1R Biochemical IC50, Table 6
[3] = biological target: T3, PDGFRα (Homo sapiens, UniProt P16234); assay: Caliper biochemical assay, PDGFRα; conditions: read-out: PDGFRα Biochemical Avg IC50, Table 6
[4] = system: KIT phosphorylation in M-07e cells; assay: Cell-based KIT phosphorylation in M-07e cells by pKIT ELISA; conditions: read-out: M-07e pKIT IC50, SCF stimulation
[5] = system: Caco-2 cells; assay: Caco-2 permeability assay; conditions: for Caco-2: Papp A-B: Caco-2, apical to basolateral
[6] = biological target: MDR1 (MDR1-MDCKII cells) (Homo sapiens, UniProt P08183); assay: Permeability in MDR1-MDCKII cells; conditions: for MDCKII-MDR1: Papp A-B: MDCKII-MDR1, apical to basolateral
[7] = Kinetic solubility assay; conditions: 50 mM PB (pH 7.4), shaken 24 hours at RT
[8] = biological target: T1, wtKIT; assay: HTRF biochemical assay, wtKIT (phosphorylation of a peptide substrate); conditions: read-out: KIT Biochemical IC50 avg, Table 4
[9] = biological target: T2, CSF-1R; assay: HTRF biochemical assay, CSF-1R; conditions: read-out: CSF-1R Biochemical IC50 avg, Table 4
[10] = biological target: T3, PDGFRα; assay: HTRF biochemical assay, PDGFRα; conditions: read-out: PDFGRα Biochemical IC50 avg, Table 4
[11] = Three time point assay for plasma, brain and testes distribution after oral dosing; conditions: rat, time point 2 h
[12] = biological target: BCRP (BCRP-MDCKII monolayer) (Homo sapiens, UniProt Q9UNQ0); assay: MDCKII-BCRP bidirectional transport assay; conditions: for MDCK-BCRP: Papp A-B: apical to basolateral
[13] = system: CYP3A4; assay: Hepatocyte CYP induction assay, CYP3A4 gene expression; conditions: human hepatocytes, donor two

| SMILES | IC50 [1] [µM] | IC50 [2] [µM] | IC50 [3] [µM] | IC50 [4] [µM] | Solubility (μM) [7] | IC50 [8] [µM] | IC50 [9] [µM] | IC50 [10] [µM] | other results |
| --- | --- | --- | --- | --- | --- | --- | --- | --- | --- |
| Cc1ccc(-c2noc(C3CCN3CCC(F)(F)F)n2)cc1NC(=O)c1cnc2ccccn12 (stereo not shown) | < 0.05 | 0.05 to 0.5 | 0.5 to 5 | < 0.05 | *** (a solubility greater than 2 μM and less than or equal to 10 μM) |  |  |  | Caco-2: Efflux Ratio [5]: 0.44; Caco-2: Papp A-B [5]: 18.1 10^−6 cm/s; MDCKII-MDR1: Efflux Ratio [6]: 0.73; MDCKII-MDR1: Papp A-B [6]: 22 10^−6 cm/s |
| Cc1ccc(-c2noc(C3CO3)n2)cc1NC(=O)c1cnc2ccccn12 (stereo not shown) |  |  |  | < 0.05 | ** (a solubility greater than 10 μM and less than or equal to 50 μM) | < 0.05 | 0.05 to 0.5 | 0.5 to 5 |  |
| Cc1ccc(-c2noc(CC(O)C(F)F)n2)cc1NC(=O)c1cnc2ccccn12 (stereo not shown) [Compound I-476] | < 0.05 | < 0.05 | 0.5 to 5 | < 0.05 | **** (a solubility less than or equal to 2 μM) | < 0.05 | 0.05 to 0.5 | 0.5 to 5 | Caco-2: Efflux Ratio [5]: 5.15; Caco-2: Papp A-B [5]: 5.78 10^−6 cm/s; MDCKII-MDR1: Efflux Ratio [6]: 2.24; MDCKII-MDR1: Papp A-B [6]: 9.15 10^−6 cm/s; Brain concentration [11]: 143 ng/g; Kp brain/plasma [11]: 0.11; Kp testes/plasma [11]: 0.5; Plasma concentration [11]: 1370 ng/mL; Testes concentration [11]: 683 ng/g |
| Cc1ccc(-c2noc(C[C@H](C)O)n2)cc1NC(=O)c1cnc2ccccn12 | < 0.05 | 0.05 to 0.5 | 0.5 to 5 | < 0.05 |  |  |  |  | Caco-2: Efflux Ratio [5]: 1.8; Caco-2: Papp A-B [5]: 6 10^−6 cm/s; MDCK-BCRP: Efflux Ratio [12]: 10.7; MDCK-BCRP: Papp A-B [12]: 3.33 10^−6 cm/s; MDCKII-MDR1: Efflux Ratio [6]: 1.83; MDCKII-MDR1: Papp A-B [6]: 15.3 10^−6 cm/s |
| Cc1ccc(-c2noc([C@H]3C[C@@H]3F)n2)cc1NC(=O)c1cnc2cc(COC3COC3)ccn12 |  |  |  | < 0.05 | **** (a solubility less than or equal to 2 μM) | < 0.05 | < 0.05 | 0.05 to 0.5 |  |
| Cc1ccc(-c2noc(C3CC3C(F)(F)F)n2)cc1NC(=O)c1cnc2ccccn12 (stereo not shown) |  |  |  | < 0.05 | **** (a solubility less than or equal to 2 μM) | < 0.05 | < 0.05 | 0.05 to 0.5 |  |
| Cc1ccc(-c2noc(C(F)C(C)O)n2)cc1NC(=O)c1cnc2ccccn12 (stereo not shown) |  |  |  | < 0.05 | * (a solubility greater than 50 μM) | 0.05 to 0.5 | 0.05 to 0.5 | 0.05 to 0.5 |  |
| Cc1ccc(-c2noc([C@H]3CC(F)(F)CN3)n2)cc1NC(=O)c1cnc2cc(COCCO)ccn12 |  |  |  | < 0.05 | * (a solubility greater than 50 μM) | < 0.05 | 0.05 to 0.5 | 0.05 to 0.5 |  |
| Cc1ccc(-c2noc(C3CC3(F)Cl)n2)cc1NC(=O)c1cnc2ccccn12 (stereo not shown) |  |  |  | < 0.05 | **** (a solubility less than or equal to 2 μM) | < 0.05 | 0.05 to 0.5 | 0.5 to 5 |  |
| Cc1ccc(-c2noc(CC(C)O)n2)cc1NC(=O)c1cnc2ccccn12 (single isomer, unassigned) [I-256] | < 0.05 | 0.05 to 0.5 | 5 to 30 |  | * (a solubility greater than 50 μM) | 0.05 to 0.5 |  |  | MDCK-BCRP: Efflux Ratio [12]: 9.12; MDCK-BCRP: Papp A-B [12]: 3.76 10^−6 cm/s; Brain concentration [11]: 105 ng/g; Kp brain/plasma [11]: 0.06; Kp testes/plasma [11]: 0.25; Plasma concentration [11]: 1880 ng/mL; Testes concentration [11]: 477 ng/g; CYP 3A4 induction mRNA: Mean fold at 10 μM [13]: + (induction fold of less than or equal to 2-fold) |
| Cc1ccc(-c2noc([C@H]3C[C@@H]3F)n2)cc1NC(=O)c1cnc2cc(C3CNC3)ccn12 |  |  |  | 0.05 to 0.5 | * (a solubility greater than 50 μM) | 0.05 to 0.5 | 0.5 to 5 | 5 to 30 |  |
| Cc1ccc(-c2noc(COC3CC(F)(F)C3(F)F)n2)cc1NC(=O)c1cnc2ccccn12 (stereo not shown) |  |  |  | < 0.05 | **** (a solubility less than or equal to 2 μM) | < 0.05 | 0.05 to 0.5 | 0.05 to 0.5 | MDCK-BCRP: Efflux Ratio [12]: 1.28; MDCK-BCRP: Papp A-B [12]: 15.5 10^−6 cm/s |
| COc1ccn2c(C(=O)Nc3cc(-c4noc(CC5CC5(F)F)n4)ccc3C)cnc2c1 (racemic) |  |  |  | < 0.05 | **** (a solubility less than or equal to 2 μM) | < 0.05 | < 0.05 | 0.05 to 0.5 | MDCK-BCRP: Efflux Ratio [12]: 1.64; MDCK-BCRP: Papp A-B [12]: 2.89 10^−6 cm/s |
| Cc1ccc(-c2noc([C@H]3C[C@@H]3F)n2)cc1NC(=O)c1cnc2cc(Cl)ccn12 |  |  |  | < 0.05 | **** (a solubility less than or equal to 2 μM) | < 0.05 | 0.05 to 0.5 | 0.05 to 0.5 |  |
| O=C(Nc1cccc(-c2noc([C@H]3C[C@@H]3F)n2)c1F)c1cnc2ccccn12 | < 0.05 | 0.05 to 0.5 | 5 to 30 | 0.05 to 0.5 | *** (a solubility greater than 2 μM and less than or equal to 10 μM) |  |  |  | Caco-2: Efflux Ratio [5]: 0.55; Caco-2: Papp A-B [5]: 27.4 10^−6 cm/s; MDCK-BCRP: Efflux Ratio [12]: 0.72; MDCK-BCRP: Papp A-B [12]: 17.7 10^−6 cm/s; MDCKII-MDR1: Efflux Ratio [6]: 0.67; MDCKII-MDR1: Papp A-B [6]: 23.6 10^−6 cm/s |
| COc1ccc2ncc(C(=O)Nc3cc(-c4noc(C5CC5F)n4)ccc3Cl)n2c1 (single isomer, unassigned) |  |  |  | < 0.05 | **** (a solubility less than or equal to 2 μM) | < 0.05 | < 0.05 | 0.05 to 0.5 | CYP 3A4 induction mRNA: Mean fold at 10 μM [13]: +++ (induction fold of greater than 3-fold to less than or equal to 10-fold) |
| COCc1ccn2c(C(=O)Nc3cc(-c4noc([C@H]5CCN5)n4)ccc3C)cnc2c1 |  |  |  |  |  | < 0.05 | 0.05 to 0.5 | 5 to 30 |  |
| Cc1nc(-c2ccc(C)c(NC(=O)c3cnc4cc(OCCCN5C(=O)OC[C@H]5CO)ccn34)c2)no1 |  |  |  |  |  | < 0.05 | 0.05 to 0.5 | 0.5 to 5 |  |
| CCCS(=O)(=O)N1CC(c2nc(-c3ccc(C)c(NC(=O)c4cnn5ccccc45)c3)no2)C1 | < 0.05 | 0.05 to 0.5 | 5 to 30 | < 0.05 | **** (a solubility less than or equal to 2 μM) |  |  |  | Caco-2: Efflux Ratio [5]: 2.37; Caco-2: Papp A-B [5]: 12 10^−6 cm/s; MDCK-BCRP: Efflux Ratio [12]: 2.55; MDCK-BCRP: Papp A-B [12]: 8.23 10^−6 cm/s; MDCKII-MDR1: Efflux Ratio [6]: 2.28; MDCKII-MDR1: Papp A-B [6]: 11 10^−6 cm/s |
| CCCS(=O)(=O)N1CC[C@@H]1c1nc(-c2ccc(Cl)c(NC(=O)c3cnc4ccccn34)c2)no1 | < 0.05 | 0.05 to 0.5 | 0.5 to 5 | 0.05 to 0.5 | * (a solubility greater than 50 μM) |  |  |  | Caco-2: Efflux Ratio [5]: 0.67; Caco-2: Papp A-B [5]: 12.6 10^−6 cm/s; MDCKII-MDR1: Efflux Ratio [6]: 0.63; MDCKII-MDR1: Papp A-B [6]: 16.2 10^−6 cm/s |
| Cc1ccc(-c2noc([C@@H]3CCN3)n2)cc1NC(=O)c1cnc2cc(C(C)(F)F)ccn12 |  |  |  |  |  | 0.05 to 0.5 | 0.05 to 0.5 | 5 to 30 |  |
| Cc1ccc(-c2noc([C@H]3C[C@H](OCCF)C3)n2)cc1NC(=O)c1cnc2cc(Cl)ccn12 |  |  |  |  |  | < 0.05 | 0.05 to 0.5 | 5 to 30 |  |
| Cc1ccc(-c2noc([C@H]3C[C@@H]3F)n2)cc1NC(=O)c1cnc2cc(C3COC3)ccn12 | < 0.05 | 0.05 to 0.5 | 0.5 to 5 | < 0.05 | ** (a solubility greater than 10 μM and less than or equal to 50 μM) |  |  |  | Caco-2: Efflux Ratio [5]: 2.85; Caco-2: Papp A-B [5]: 8.17 10^−6 cm/s; MDCK-BCRP: Efflux Ratio [12]: 7.82; MDCK-BCRP: Papp A-B [12]: 4.44 10^−6 cm/s; MDCKII-MDR1: Efflux Ratio [6]: 1.45; MDCKII-MDR1: Papp A-B [6]: 11.7 10^−6 cm/s |
| COc1ccc2ncc(C(=O)Nc3cc(-c4noc([C@H]5C[C@@H]5F)n4)ccc3C)n2c1 | < 0.05 | < 0.05 | 0.5 to 5 | < 0.05 | *** (a solubility greater than 2 μM and less than or equal to 10 μM) |  |  |  | CYP 3A4 induction mRNA: Mean fold at 10 μM [13]: +++ (induction fold of greater than 3-fold to less than or equal to 10-fold) |
| COCc1ccn2c(C(=O)Nc3cc(-c4noc(C[C@@H](C)O)n4)ccc3C)cnc2c1 |  |  |  |  |  | 0.05 to 0.5 | 0.05 to 0.5 | 5 to 30 |  |
| Cc1ccc(-c2noc([C@H]3C[C@@H]3F)n2)cc1NC(=O)c1cnc2n1CCCC2 |  |  |  | 0.05 to 0.5 | * (a solubility greater than 50 μM) | 0.05 to 0.5 | 0.5 to 5 | 5 to 30 | CYP 3A4 induction mRNA: Mean fold at 10 μM [13]: + (induction fold of less than or equal to 2-fold) |
